Cneo AK release: Cryptococcus neoformans cell lysis inducers, primary screen, AK release luminescence, single concentration | C. neoformans lysis, adenylate kinase release luminescence, 4 h; normalised: neutral wells 0, clomiphene wells 100 | lysis activity, % at 15 µM | 360,000 tested, 0.2% active | AID 651654, 2012;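 active = mean lysis activity across replicates of at least 80%, whatever share of replicates individually reach that level; inactive = mean lysis activity below 80%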
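Schedule: static 4 h at 37 °C with compound, 1 h detection; system: C. neoformans cells; benchmarks: Clomiphene as positive control; buffer or medium: fresh YPD medium; measure: luminescence rise reflecting yeast cell lysis; measured by: luminescent adenylate kinase detection reagent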
DENV2 CPE rescue: inhibitors of DENV2 cytopathic effect, primary screen, cell-based, plate reader, single concentration; DENV2-infected cells, cytopathic effect rescue; CPE inhibition, % at 9.99 µM; 350,000 tested, 1.7% active; in the data active = CPE inhibition above about 20%, passing the limit was not always enough; inconclusive = no clear call, values can overlap the other calls; tested in BHK-21 cells;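 note: 0% = median of neutral control wells and 100% = median of positive control wells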
E-sel inducer: E-selectin induction in HUVECs, primary screen, imaging, HUVEC, immunofluorescence imaging, single point; 260,000 tested, 0.37% active; AID 686992, 2013; normalized: neutral wells 0, TNF-alpha wells 100; P16581; activation, % at 7.58 µM;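 active = mean E-selectin-positive cell signal at least 10% of the positive control, reached in at least 60% of replicates, without over 20% cell loss; inconclusive = no rule given, readout overlaps actives, possibly toxicity-flagged; inactive = the rest, including those meeting only one limit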
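assay system = HUVEC, human umbilical vein endothelial cells | input = 3,000 HUVEC seeded per well | medium = EGM-2 growth medium on 0.1% gelatin-coated wells | dosing = one compound dose added by pin transfer | signal = immunofluorescence imaging | read-out basis = % PE-positive cells | control set = TNF-alpha, DMSO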
Yeast UUG start: modulators of start codon recognition fidelity in yeast; AID 602363; activity score, % at 18.7 µM; S. cerevisiae UUG-firefly luciferase reporter, luminescence/redox ratio; 0.13% of 350,000 active;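 active = replicate mean at a twofold rise or more, about +100% in these data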;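 note: firefly luciferase made from a UUG start codon reports start codon fidelity; reporter light over untreated wells divided by growth signal over untreated wells; some hits fall short of that in this replicate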
* = called active by the depositor; u = inconclusive; x = no result given. Hits are enriched below; roughly 1.8% of the tested compounds scored in any of these assays.

(1) C[C@@H]1CN([C@H](C)CO)C(=O)c2cc(NS(=O)(=O)c3ccc(Cl)cc3)ccc2O[C@@H]1CN(C)S(=O)(=O)c1ccc(F)cc1
(2) C[C@@H]1CN([C@H](C)CO)C(=O)c2cc(NS(=O)(=O)c3ccc(Cl)cc3)ccc2O[C@H]1CN(C)S(=O)(=O)c1ccc(F)cc1
(3) C[C@H](CO)N1C[C@H](C)[C@H](CN(C)S(=O)(=O)c2ccc(F)cc2)Oc2ccc(NS(=O)(=O)c3ccc(Cl)cc3)cc2C1=O
(4) C[C@H]1CN([C@@H](C)CO)C(=O)c2cc(NS(=O)(=O)c3ccc(F)cc3)ccc2O[C@H]1CN(C)S(=O)(=O)c1ccc(Cl)cc1
(5) CCN(CC)CCOc1c(C)cccc1Cl

assay / entry	1	2	3	4	5
Cneo AK release	4	101*	102*	2	10
DENV2 CPE rescue	7	-7	u	26*	2
E-sel inducer	1	0	0	-1	x
Yeast UUG start	3	29	32	5	6

(6) CCN(CC)CCCC(C)Nc1nccc2c(Cl)cccc12 (stereo not given)
(7) CCCNC(=O)N1C[C@H](C)[C@@H](OC)CN(C)C(=O)c2cc(NS(C)(=O)=O)ccc2OC[C@@H]1C
(8) N=C1/C(=C\c2ccc(-c3cccc(Cl)c3)o2)C(=O)N=C2SC=C(c3ccccc3)N12
(9) COc1ncc(C2=CC(=O)CC(C)(C)C2)cn1
(10) CN(C)CC(=O)N[C@@H]1C=C[C@@H](CC(=O)NCc2ccc(Cl)cc2)O[C@H]1CO

assay / entry	6	7	8	9	10
Cneo AK release	0	-4	x	-1	-1
DENV2 CPE rescue	49*	-1	67*	31*	-1
E-sel inducer	0	0	x	0	0
Yeast UUG start	-5	x	x	-16	-18

(11) CC(C)(C)OC(=O)C[C@@H]1C/C=C\C[C@@H](CC(=O)N[C@@H](CO)Cc2ccccc2)C(=O)NC[C@@H](c2ccccc2)OC1=O
(12) CC(C)(C)OC(=O)C[C@H]1C/C=C\C[C@@H](CC(=O)N[C@@H](CO)Cc2ccccc2)C(=O)NC[C@H](c2ccccc2)OC1=O
(13) COc1ccc2nc(SC(C)C(=O)NC3(C#N)CCCCC3)[nH]c2c1 (stereo not given)
(14) COc1ccc2nc(SC(C)C(=O)NC3CCCC3)[nH]c2c1 (stereo not given)
(15) O=C1CCN(Cc2ccc(Br)cc2)CCN1CCO

assay / entry	11	12	13	14	15
Cneo AK release	2	1	0	x	0
DENV2 CPE rescue	11	58*	-6	64*	29*
E-sel inducer	26	1	0	0	0
Yeast UUG start	20	-1	-18	x	-23

(16) C=C(NC(=O)C(=C)NC(=O)c1csc(C2=NC3c4csc(n4)C4NC(=O)c5csc(n5)C(C(C)(O)C(C)O)NC(=O)C5CSC(=N5)/C(=C/C)NC(=O)C(C(C)O)NC(=O)c5csc(n5)C3(CC2)NC(=O)C(C)NC(=O)C(=C)NC(=O)C(=C)NC(=O)C(C(C)C)NC2C=Cc3c(C(C)O)cc(nc3C2O)C(=O)OC4C)n1)C(N)=O (stereo not given)
(17) C[C@@H](NC(=O)C[C@H]1CC[C@@H]2[C@H](COC[C@@H](O)CN2C)O1)c1ccccc1
(18) C[C@H](CO)N1C[C@H](C)[C@@H](CN(C)C(=O)Nc2ccc(C(F)(F)F)cc2)OCCCC[C@H](C)Oc2ccc(NS(=O)(=O)c3ccc(F)cc3)cc2C1=O
(19) C[C@@H]1CCCCO[C@@H](CN(C)C(=O)Nc2ccc(C(F)(F)F)cc2)[C@H](C)CN([C@@H](C)CO)C(=O)c2cc(NS(=O)(=O)c3ccc(F)cc3)ccc2O1
(20) C[C@@H]1CCCCO[C@@H](CN(C)C(=O)Nc2ccc(C(F)(F)F)cc2)[C@@H](C)CN([C@H](C)CO)C(=O)c2cc(NS(=O)(=O)c3ccc(F)cc3)ccc2O1

assay / entry	16	17	18	19	20
Cneo AK release	x	5	-1	-4	x
DENV2 CPE rescue	60*	-4	95*	61*	7
E-sel inducer	x	0	x	x	x
Yeast UUG start	x	-13	-8	-11	x

Complete entries, looked up by structure. Order of values: Cneo AK release	DENV2 CPE rescue	E-sel inducer	Yeast UUG start
C[C@@H](NC(=O)C[C@H]1CC[C@@H]2[C@H](COC[C@@H](O)CN2C)O1)c1ccccc1 across the screens: 5	-4	0	-13
C[C@H](CO)N1C[C@H](C)[C@@H](CN(C)C(=O)Nc2ccc(C(F)(F)F)cc2)OCCCC[C@H](C)Oc2ccc(NS(=O)(=O)c3ccc(F)cc3)cc2C1=O across the screens: -1	95*	x	-8
C[C@@H]1CCCCO[C@@H](CN(C)C(=O)Nc2ccc(C(F)(F)F)cc2)[C@H](C)CN([C@@H](C)CO)C(=O)c2cc(NS(=O)(=O)c3ccc(F)cc3)ccc2O1 across the screens: -4	61*	x	-11

Next part:
(21) C[C@@H]1CCCCO[C@H](CN(C)C(=O)Nc2ccc(C(F)(F)F)cc2)[C@H](C)CN([C@H](C)CO)C(=O)c2cc(NS(=O)(=O)c3ccc(F)cc3)ccc2O1
(22) CO[C@@H]1CN(C)C(=O)c2cc(NC(C)=O)ccc2OC[C@@H](C)N(C(=O)CC2CC2)C[C@@H]1C
(23) Cc1noc(C)c1NC(=O)Nc1ccc2c(c1)CC(=O)N([C@H](C)CO)C[C@H](C)[C@@H](CN(C)C(=O)Nc1ccc3c(c1)OCO3)O2
(24) CC(=O)N1[C@H](C(=O)NCc2ccccc2)[C@@H](CO)[C@@H]2Cn3c(cccc3=O)[C@@H]21
(25) O=C(Cn1cnc2c(NCc3ccccc3)ncnc21)NCC1CCCO1 (stereo not given)

assay / entry	21	22	23	24	25
Cneo AK release	-1	-3	50	x	-6
DENV2 CPE rescue	71*	9	-5	-2	75*
E-sel inducer	x	0	0	0	-1
Yeast UUG start	-20	-16	57	x	-7

The results go on:
entry	smiles	Cneo AK release	DENV2 CPE rescue	E-sel inducer	Yeast UUG start
26	Cc1ccc(CC(=O)Nc2cccc(C(=O)Nc3c(C)n(C)n(-c4ccccc4)c3=O)c2)cc1C	-3	31*	x	-8
27	CC(C)(C(=O)N1CCC1(C)C(=O)Nc1ccccc1Br)c1ccccc1 (stereo not given)	-1	25*	0	9
28	COc1cccc(NC(=O)Nc2ccc3c(c2)C(=O)N(C)C[C@H](OC)[C@@H](C)CN(CC2CC2)[C@H](C)CO3)c1	-2	2	0	x
29	CCCC(=O)Nc1ccc2c(c1)OC[C@H](C)N(CCC(F)(F)F)C[C@H](C)[C@@H](OC)CN(C)C2=O	x	31*	0	x
30	CO[C@H]1CN(C)C(=O)c2cc(NC(=O)CC(F)(F)F)ccc2OC[C@H](C)N(CC2CC2)C[C@H]1C	x	54*	0	x
31	CCCC(=O)Nc1ccc2c(c1)OC[C@@H](C)N(CCC(F)(F)F)C[C@H](C)[C@H](OC)CN(C)C2=O	-2	7	0	13
32	CO[C@@H]1CN(C)C(=O)c2cc(NC(=O)c3ccccc3F)ccc2OC[C@H](C)N(CC2CC2)C[C@@H]1C	-31	43*	0	-8
33	COc1cccc(NC(=O)Nc2ccc3c(c2)C(=O)N(C)C[C@H](OC)[C@@H](C)CN(CC2CC2)[C@@H](C)CO3)c1	x	22*	1	x
34	C[C@@H]1CCCCO[C@H](CN(C)CC2CC2)[C@H](C)CN([C@@H](C)CO)C(=O)c2cc(NC(=O)c3ccncc3)ccc2O1	3	-2	0	-2
35	CCCN1C[C@H](C)[C@H](OC)CN(C)C(=O)c2ccc(NC(=O)CC(F)(F)F)cc2OC[C@@H]1C	x	33*	0	x
36	COc1ccc(CN(C)C[C@H]2OCCCC[C@@H](C)Oc3ccc(NC(=O)NC(C)C)cc3C(=O)N([C@H](C)CO)C[C@H]2C)cc1	-2	86*	0	34
37	COc1ccc(NC(=O)Nc2ccc3c(c2)C(=O)N([C@H](C)CO)C[C@@H](C)[C@H](CN(C)Cc2ccc(C(=O)O)cc2)OCCCC[C@H](C)O3)cc1	3	5	0	8
38	COc1ccc(NC(=O)Nc2ccc3c(c2)C(=O)N([C@@H](C)CO)C[C@H](C)[C@H](CN(C)Cc2ccc(C(=O)O)cc2)OCCCC[C@H](C)O3)cc1	54	80*	0	13

Compound activity as filed in PubChem.
